From patent US20110105623A1 (Biogenic Innovations, LLC, priority 2009, published 2011)

Legend:
[1] = tested on: Lactobacillus acidophilus milk; test: Growth in simulated gastric acid supplemented with MSM; conditions: 5.0% MSM; hour 15 / at maximum
pasture grass mix = test: Grass growth and nutrient value with MSM and/or fertilizer; conditions: MSM 1:500, dry basis
[2] = tested on: Bifidobacterium bifidum ATCC #29521; test: Growth in MRS broth + L-cysteine fortified with MSM; conditions: 5% MSM; Hour 48

## Methylsulfonylmethane [MSM]
[1]
  logs higher than the control: 0.45 logs and 0.68 logs
Pasture grass mix
  Protein Solubility: 59.52%
[2]
  logs lower than the control: 0.7 logs

Values joined by “and” are separate entries in the source; they are usually repeats but may differ in a detail not shown here. Equal values may be shown once.
